The values below are quoted from earlier work in publication PMC3694332 (Biopharmaceutics & drug disposition, 2009).

One series relates to P-gp. Particulars: cited from earlier work.
In a further series the test system is MRP1. Particulars: Panc-1 cells, 100 μM isothiocyanate, 2 h; cited from earlier work.
The next series deals with MRP2. To be noted: cited from earlier work.
Setting [1] is: MCF7/ADR cells, 100 μM isothiocyanate, 2 h.

On to `S=C=Nc1cccc2ccccc12` [NITC, α-naphthyl isothiocyanate], for which the “increase in accumulation of daunomycin” value in the series on P-gp (setting [1]) is 4 fold; in the series with MRP1, 3 fold. Also, the figures for the “increase in accumulation of vinblastine” value in the series with P-gp (setting [1]) and in the series on MRP1 were 40 fold and 5.5 fold, respectively. Besides, the “investigated as substrate (S)/inhibitor (I)” value in the series on P-gp (MCF7/ADR, P-gp) is on record as 1-Naphthyl isothiocyanate(I); with MRP2 (MDCK II, MRP2), 1-Napthyl isothiocyanate (S). In addition, in the series with MRP2 (5 μM NITC at apical side for 24 h, compared with control MDCK II cells), the “increased secretion of glutathione into the apical medium” value is listed as 4 fold.
